Assay: Spectroscopic properties of fluorochrome conjugates in methanol
Details: for λmax,em (nm): emission maximum; for λmax, exc (nm): excitation maximum

In the case of Cy5 bis-propionamido-phenylarsineoxide, the “λmax,em (nm)” value is reported as 665 nm and the “λmax, exc (nm)” value is reported as 647 nm.

With “Cy5 bis-propionamido-phenylarsine-ethanedithiol” the “λmax,em (nm)” value was 666 nm and the “λmax, exc (nm)” value was 648 nm.

In the case of “Cy3 bis-sulfonato bis-propionamido-phenylarsine-ethanedithiol”, the “λmax,em (nm)” value is reported as 572 nm and the “λmax, exc (nm)” value is reported as 558 nm.

For “Cy7 bis-propionamido-phenylarsine-ethanedithiol”, the “λmax,em (nm)” value was 774 nm and the “λmax, exc (nm)” value was 743 nm.

For “Cy3 bis-propionamido-phenylarsine-ethanedithiol”, the “λmax,em (nm)” value was 567 nm and the “λmax, exc (nm)” value was 552 nm.

In the case of “Cy3 bis-sulfonato bis-propionamido-phenylarsine-propanedithiol-sulfonic acid”, the “λmax,em (nm)” value is reported as 570 nm and the “λmax, exc (nm)” value is reported as 557 nm.

In the case of “Cy5 bis-sulfonato bis-propionamido-phenylarsine-propanedithiol-sulfonic acid”, the “λmax,em (nm)” value is reported as 667 nm and the “λmax, exc (nm)” value is reported as 652 nm.

With “Cy5 bis-sulfonato bis-propionamido-phenylarsine-ethanedithiol” the “λmax,em (nm)” value was 673 nm and the “λmax, exc (nm)” value was 650 nm.

For Cy3 bis-propionamido-phenylarsineoxide, the “λmax,em (nm)” value was 566 nm and the “λmax, exc (nm)” value was 552 nm.

From patent US7141655B2, “Reagents and procedures for high-specificity labeling” (dated 2006)
